Consider one substance from patent US10376456B2, “Concentrated and self-preserving compositions of mild surfactants for transparent and skin-pH personal care formulations” (GALAXY SURFACTANTS LTD., priority 2015, dated 2019).

This series in a line: Critical micelle concentration (CMC). The series is classed as physicochemical. The text has this:
It is well established that in case of surfactants, lower the CMC value, milder the surfactants. Ionic surfactant molecules interact with proteins through charge-charge interaction since the charge density on the head group is high. Whenever aggregates are formed the charge density of micelle is much lesser as the charge gets spread over the large micelle. […] It can be seen from Table 2 that CMC of anionic sodium lauryl sulphate (SLS) is the highest and zwitterionic (electrically neutral) cocoamidopropyl (CAPB) is the lowest.

potassium cocoyl glutamate had a CMC of 1.01 mM/liter.
